Values of other authors in publication PMC8426299, “Effect of severe renal impairment on the pharmacokinetics of brigatinib” (Investigational New Drugs, 2021).

System: ALK + NSCLC
Parameters: method as in PMID 32780660
Conditions: ALK inhibitor-naive patients; cited from earlier work

C[C@@H](Oc1cc(-c2cnn(C3CCNCC3)c2)cnc1N)c1c(Cl)ccc(F)c1Cl [crizotinib]
24-month PFS, blinded independent review committee-assessed: 26% | 24-month PFS, investigator-assessed: 24%
